# This is a selection; strong and weak results do not stand in their true shares. Inconclusive results are not listed. The source made the active and inactive calls. Calls come from the whole dose curve; as a rule, active = well fitted inhibition curve with a large enough effect; inconclusive = small, poorly fitted or top-dose-only effect; inactive = no such curve, though single readings can be large or run the other way.
# By UniProt entry, the sequences of proteins in these tests, tags left out. Where a name states a change or a piece, a line headed by the entry shows the natural chain unless it says otherwise.
# UniProt O95398: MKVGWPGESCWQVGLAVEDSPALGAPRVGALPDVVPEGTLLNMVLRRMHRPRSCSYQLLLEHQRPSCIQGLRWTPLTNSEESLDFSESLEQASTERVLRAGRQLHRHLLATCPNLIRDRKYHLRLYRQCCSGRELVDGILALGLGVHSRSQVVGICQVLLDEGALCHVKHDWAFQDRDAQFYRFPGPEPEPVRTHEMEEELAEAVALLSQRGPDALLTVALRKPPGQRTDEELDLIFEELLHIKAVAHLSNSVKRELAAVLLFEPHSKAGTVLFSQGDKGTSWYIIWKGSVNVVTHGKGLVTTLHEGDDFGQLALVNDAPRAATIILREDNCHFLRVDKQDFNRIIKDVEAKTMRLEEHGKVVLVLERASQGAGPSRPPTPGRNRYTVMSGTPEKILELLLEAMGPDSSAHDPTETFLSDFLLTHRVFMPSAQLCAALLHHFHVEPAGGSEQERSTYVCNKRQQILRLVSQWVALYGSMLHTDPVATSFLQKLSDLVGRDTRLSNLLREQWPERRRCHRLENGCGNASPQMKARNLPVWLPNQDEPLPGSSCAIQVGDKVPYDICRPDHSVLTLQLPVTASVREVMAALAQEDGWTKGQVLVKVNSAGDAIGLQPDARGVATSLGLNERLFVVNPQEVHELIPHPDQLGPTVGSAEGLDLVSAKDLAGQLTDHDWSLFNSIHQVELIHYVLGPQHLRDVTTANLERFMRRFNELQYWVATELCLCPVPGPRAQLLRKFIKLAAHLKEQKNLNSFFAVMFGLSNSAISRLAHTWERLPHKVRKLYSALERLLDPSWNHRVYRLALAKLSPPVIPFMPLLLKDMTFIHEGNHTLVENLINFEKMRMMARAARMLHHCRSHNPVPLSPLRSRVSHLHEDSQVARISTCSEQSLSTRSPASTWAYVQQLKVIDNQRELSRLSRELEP
# Molecular target: Rap guanine nucleotide exchange factor 3 (Homo sapiens) (UniProt O95398)
# Assay: qHTS for Antagonist of cAMP-regulated guanine nucleotide exchange factor 3 (EPAC1): primary screen;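 note: plate controls were vehicle for no effect and positive control for full effect; nearly all actives have a fitted effect of over 50% in size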
# Conditions: EPAC1 GEF assay, Rap1b-BODIPY-GDP exchange fluorescence; at 115 µM (top of the series)
# From the text: In multi-cellular eukaryotic organisms, the effects of cAMP are transduced by two ubiquitously-expressed intracellular cAMP receptors, the classic protein kinase A/cAMP-dependent protein kinase (PKA/cAPK) and the more recently discovered exchange protein directly activated by cAMP/cAMP-regulated guanine nucleotide exchange factor (EPAC/cAMP-GEF). Both PKA and EPAC are ubiquitously expressed in all tissues, and an increase in intracellular cAMP levels will lead to the activation of both PKA and EPAC. Therefore, careful dissections of the individual role and relative contribution of EPAC and PKA within the overall cAMP signaling in various model systems are critical for further elucidating the mechanism of cAMP signaling. To date no EPAC-specific antagonists and agonist, as well as isoform-specific agonists have been reported, and developing EPAC-specific pharmacological probes to determine the physiological functions that EPAC play in the overall cAMP-mediated signaling remains a major challenge within the research field. Furthermore, identified regulators of EPAC may lead to new mechanism-based therapeutic strategies specifically targeting the EPAC / cAMP-signaling components as EPAC has been implicated to play important roles in major human pathological conditions such as diabetes, heart disease, and cancer. This qHTS will be used to screen the Molecular Libraries Small Molecule Repository (MLSMR) as a concentration-titration series using the NCGC unique quantitative screening (qHTS) platform to find inhibitors for EPAC1. In addition, this assay will also be used as a counterscreen for the EPAC2 qHTS. This fluorescent based assay is developed and validated for EPAC1 that measures exchange using EPAC effector Rap1 complex with BODIPY-GDP, a GDP analog with a tethered fluorophores. Inhibitors are identified by monitoring the change in fluorescence signal as the exchanged free BODIPY-GDP has a reduced fluorescence compared to Rap1-bound BODIPY-GDP. Decrease in signal (inhibition) is the desired outcome for the EPAC1 antagonist while no activity in this assay is desired for the EPAC2 antagonist counterscreen. de Rooij, J., Zwartkruis, F. J., Verheijen, M. H., Cool, R. H., Nijman, S. M., Wittinghofer, A., and Bos, J.L. (1998) Nature 396, 474-477 [2] Kawasaki, H., Springett, G. M., Mochizuki, N., Toki, S., Nakaya, M., Matsuda, M., Housman, D. E., and Graybiel, A. M. (1998) Science 282, 2275-2279 NIH Chemical Genomics Center [NCGC] NIH Molecular Libraries Probe Centers Network [MLPCN] MLPCN Grant: NS066510 Assay Submitter (PI): Xiaodong Cheng, The University of Texas, Medical Branch
# Briefly, three uL of reagents (100 nM EPAC1, 250 nM RAP1B-BODIPY-GDP, 50 uM GDP) were dispensed into a 1536-well Greiner black solid-bottom medium binding assay plate. Controls and test compounds (23 nL) were transferred to the plate via a Kalypsys pin tool equipped with a 1536-pin array. The plates were centrifuged at 1,000 rpm for 15 seconds followed by 5 minute incubation at room temperature. The assay plates were read at 5 minute intervals for 30 minutes in the ViewLux plate reader using 480nm excitation and 540nm emission filters. The results were normalized to the […] positive control ATA and DMSO.
row,Compound,"activity change, negative = inhibition"
1,ClCCSc1nnc(-c2cccnc2)o1,inactive: 9.34%
2,CC(C)c1ccc(OP(=O)(Nc2ccccn2)Oc2ccccc2F)cc1 (centres undefined),inactive: -5.48%
3,COC(=O)C1(C)COP(=O)(N2CCCCCC2)OC1 (centres undefined),inactive: 0.656%
4,O=C(OC1CN2CCC1CC2)c1cccc2[nH]cnc12 (centres undefined),inactive: -4.8%
5,CCN(CC)C(=S)SC(NC=O)C(Cl)(Cl)Cl (centres undefined),inactive: 7.37%
6,CC(C)NC(=O)NP(=O)(Oc1ccccc1)Oc1ccccc1,inactive: -11.1%
7,O=[N+]([O-])c1cc([N+](=O)[O-])c(-c2ccn[nH]2)s1,inactive: -0.242%
8,C[As](=O)(O)c1cccc(C(=O)O)c1,inactive: -5.64%
9,O=[As](O)(c1ccc(O)cc1)c1ccccc1O,inactive: 9.84%
10,COc1cc(C(=O)NCC2(N3CCOCC3)CCCCC2)ccc1OCC(C)C,inactive: -5.84%
11,Cc1ccc(OP(=O)(Nc2ccc([N+](=O)[O-])cn2)Oc2ccc(C)cc2)cc1,inactive: -28.6%
12,[N-]=[N+]=NC1CCCCC1NC(=O)c1cc([N+](=O)[O-])cc([N+](=O)[O-])c1 (centres undefined),inactive: 2.22%
13,Cc1ccc2nc3c(c(C)c2c1)CC(C(Cl)Cl)S3 (centres undefined),inactive: -13.8%
14,O=[N+]([O-])c1cc(Oc2ccc([N+](=O)[O-])cc2C(F)(F)F)cc([N+](=O)[O-])c1,inactive: -3.87%
15,COc1ccc(N/C(=N/P(=O)(N2CCOCC2)N2CCOCC2)N2CCOCC2)cc1,inactive: -4.93%
16,Cc1c2c(nc3ccccc13)SC(C(Cl)Cl)C2 (centres undefined),inactive: -21.1%
17,O=C(OC1CN2CCC1CC2)C12CC3CC(CC(C3)C1)C2 (centres undefined),inactive: -4.02%
18,Cc1cc(=O)[nH]c(N[N+](=O)[O-])n1,inactive: -17.3%
19,O=P1(N(CCCl)CCCl)OCCCN1CCCl (centres undefined),inactive: -17.5%
20,O=P1(N(CCCl)CCCl)Nc2ccccc2N1,inactive: 0.256%
21,COc1ccc2nc(NP(=O)(c3ccccc3)c3ccccc3)sc2c1,inactive: 2.98%
22,COc1cc(I)ccc1[As](=O)(O)O,inactive: -8.78%
23,O=C(OC1CN2CCC1CC2)c1cccc([N+](=O)[O-])c1 (centres undefined),inactive: -13.4%
24,CSc1ccc(Nc2c([N+](=O)[O-])cc([N+](=O)[O-])cc2[N+](=O)[O-])cc1,inactive: 0.477%
25,CCOC(=O)c1ccc(NC(=O)C(C)(CCl)SC)cc1 (centres undefined),inactive: -17.6%

row,Compound,"activity change, negative = inhibition"
1,CCC(C)N(CC(C)C)C(=S)SC(NC(C)=O)C(Cl)(Cl)Cl (centres undefined),inactive: 3.42%
2,COP1(=S)c2c(C)nn(CCC#N)c2N=C(c2ccc(F)cc2)N1C (centres undefined),inactive: -0.846%
3,O=C(O)C(=O)c1ccc(N(CCCl)CCCl)cc1,inactive: 11.5%
4,O=C(COc1ccccc1)OC1CN2CCC1CC2 (centres undefined),inactive: 15.9%
5,O=C(Nc1ccncc1[N+](=O)[O-])c1ccc([N+](=O)[O-])cc1[N+](=O)[O-],inactive: -20.1%
6,CCOC(=O)Nc1cccc([As](=O)(O)O)c1,inactive: -20.3%
7,Cc1cc(SC(NC=O)C(Cl)(Cl)Cl)ncn1 (centres undefined),inactive: 5.36%
8,O=P(Nc1ccccn1)(c1cccc2ccccc12)c1cccc2ccccc12,inactive: -11.7%
9,O=[N+]([O-])c1ccc(Nc2ccc(Oc3ccc([N+](=O)[O-])cc3[N+](=O)[O-])cc2)c([N+](=O)[O-])c1,inactive: 5.04%
10,O=C(O)C(O)c1ccc(N(CCCl)CCCl)cc1 (centres undefined),inactive: 3.7%
11,CCOC(=O)Nc1ccc([As](=O)(O)O)c(O)c1,inactive: -7.83%
12,CC1CCNP(=O)(N(CCCl)CCCl)O1 (centres undefined),inactive: -1.53%
13,COP(=O)(OC)N1CC1c1ccccc1 (centres undefined),inactive: 6.86%
14,CCCCOc1ccc(C(=O)NCC2(N3CCCCC3)CCCCC2)cc1OC,inactive: 15.6%
15,Cc1cc(SC(NC(=O)c2ccccc2)C(Cl)(Cl)Cl)nc(C(C)C)n1 (centres undefined),inactive: -14.3%
16,Cc1ccc(S(=O)(=O)N(CCCN)CCCc2c(C)nc(N)[nH]c2=O)cc1,inactive: -19.1%
17,O=P1(Nc2ncccn2)COc2ccccc2OC1,inactive: 7.07%
18,Nc1cccc([As](=O)(O)c2ccccc2)c1,inactive: 1.47%
19,NS(=O)(=O)c1cccc(NC(=O)COC(=O)C(O)(c2ccccc2)c2ccccc2)c1,inactive: -20.5%
20,O=P1(Nc2ccc(Br)cn2)COc2ccccc2OC1,inactive: -3.64%
21,O=[As](O)(c1cccs1)c1cccs1,inactive: -9.65%
22,Cc1ccc(OCC(=O)OC2CN3CCC2CC3)cc1 (centres undefined),inactive: 4.06%
23,Cc1nn(-c2ccccc2)c2c1P(=O)(N1CCOCC1)N(C)C(c1ccccc1)=N2 (centres undefined),inactive: 8.27%
24,Cc1ccc(C(=O)OC2CN3CCC2CC3)cc1 (centres undefined),inactive: 2.58%
